Laboratory results reported in publication PMC8533160, “First Crystal Structure of Bacterial Oligopeptidase B in an Intermediate State: The Roles of the Hinge Region Modification and Spermine” (Biology, 2021).

Experiments:
Test in all cases: purified protein
Conditions in all cases: 0.1 M Tris-HCl, pH 8.0, 2% DMSO, 25 °C
[1] = tested on: N=C(N)NCCCC(NC(=O)c1ccccc1)C(=O)Nc1ccc([N+](=O)[O-])cc1
[2] = tested on: N=C(N)NCCC[C@H](NC(=O)OCc1ccccc1)C(=O)N[C@@H](CCCNC(=N)N)C(=O)Nc1ccc([N+](=O)[O-])cc1
[3] = tested on: N=C(N)NCCC[C@H](NC(=O)[C@H](CCCCN)NC(=O)OCc1ccccc1)C(=O)Nc1ccc([N+](=O)[O-])cc1

Substance	Km [1]	kcat [1]	kcat/Km [1]	Km [2]	kcat [2]	kcat/Km [2]	Km [3]	kcat [3]	kcat/Km [3]
PSP (oligopeptidase B from Serratia proteomaculans) (Serratia proteamaculans; E75F/H76Q/I71E/P72N/Q73L/Q74Y)	188.8 µM	1.53 s⁻¹	8170 M⁻¹ s⁻¹	11.18 µM	2.62 s⁻¹	235000 M⁻¹ s⁻¹	124.4 µM	9.88 s⁻¹	79500 M⁻¹ s⁻¹
PSP (oligopeptidase B from Serratia proteomaculans) (Serratia proteamaculans; E125A/E75F/H76Q/I71E/P72N/Q73L/Q74Y)	265.6 µM	12.1 s⁻¹	45700 M⁻¹ s⁻¹				11.6 µM	8.22 s⁻¹	708000 M⁻¹ s⁻¹
PSP (oligopeptidase B from Serratia proteomaculans) (Serratia proteamaculans; H76Q/I71E/P72N/Q73L/Q74Y)	165.5 µM	10.1 s⁻¹	60700 M⁻¹ s⁻¹	34.65 µM	16 s⁻¹	462000 M⁻¹ s⁻¹	24.0 µM	13.4 s⁻¹	560000 M⁻¹ s⁻¹
